What is called IC50 is the point on the concentration scale where inhibition reaches its midpoint. The low end stands for inhibition by little substance, the high end for a need for much substance.

This note sets out measurements from publication PMC4068829 (Journal of medicinal chemistry, 2013).

The target of experiment [1] is T1, MATE1 (Homo sapiens, UniProt Q96FL8).
T1 sequence (Q96FL8 1-570): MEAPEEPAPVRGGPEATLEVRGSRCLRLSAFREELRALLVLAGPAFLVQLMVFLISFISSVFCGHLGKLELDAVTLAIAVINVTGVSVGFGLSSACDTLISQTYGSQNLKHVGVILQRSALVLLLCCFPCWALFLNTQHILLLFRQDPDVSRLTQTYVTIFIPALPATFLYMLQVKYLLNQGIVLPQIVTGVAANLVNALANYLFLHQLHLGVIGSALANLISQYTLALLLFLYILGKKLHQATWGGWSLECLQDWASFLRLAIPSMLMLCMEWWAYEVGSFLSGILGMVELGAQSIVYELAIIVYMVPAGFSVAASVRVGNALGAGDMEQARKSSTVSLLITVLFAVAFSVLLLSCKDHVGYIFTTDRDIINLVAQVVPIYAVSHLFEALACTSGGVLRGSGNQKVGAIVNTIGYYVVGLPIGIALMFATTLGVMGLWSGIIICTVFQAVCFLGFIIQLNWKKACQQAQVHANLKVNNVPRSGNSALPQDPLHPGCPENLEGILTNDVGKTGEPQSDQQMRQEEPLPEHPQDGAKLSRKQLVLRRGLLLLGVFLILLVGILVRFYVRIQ
Description: High throughput screen.

Experiment [2] concerns the target T1, MATE1.

Like-named read-outs stand apart in the source and are kept apart here.

`Oc1c(Cl)cc(Cl)cc1Sc1cc(Cl)cc(Cl)c1O` [Bithionol] returned an IC50 against MATE1 [1] of 3 µM. In other words, the single-digit micromolar range.
In the case of `COc1cc(C(=O)NS(=O)(=O)c2ccccc2C)ccc1Cc1cn(C)c2ccc(NC(=O)OC3CCCC3)cc12` [Zafirlukast], the IC50 against MATE1 [2] came out at 4.3 µM; at MATE1 [1] it was 19 µM.
